This test concerns mutp53. As to the kind of experiment: Summary score of peptide functional screens. The note with it: overall score over conformation, DNA binding, viability and PCR screens.

The sequence “LTFEHYWAQLTS [pCAP-8, synthesized peptide of the functional screen]” returned an SCORE of 0.

(Values after article PMC4914250, “Cancer therapeutic approach based on conformational stabilization of mutant p53 protein by small peptides” (Oncotarget, 2016).)
